We go through one compound from BindingDB's records for doi:10.1124/jpet.104.071282 (Neurocrine Biosciences, 2004).

Amino acid sequences for entries named in this document (tags omitted). A change or cut given only in a name is not applied to a line headed by its entry.
UniProt P62813: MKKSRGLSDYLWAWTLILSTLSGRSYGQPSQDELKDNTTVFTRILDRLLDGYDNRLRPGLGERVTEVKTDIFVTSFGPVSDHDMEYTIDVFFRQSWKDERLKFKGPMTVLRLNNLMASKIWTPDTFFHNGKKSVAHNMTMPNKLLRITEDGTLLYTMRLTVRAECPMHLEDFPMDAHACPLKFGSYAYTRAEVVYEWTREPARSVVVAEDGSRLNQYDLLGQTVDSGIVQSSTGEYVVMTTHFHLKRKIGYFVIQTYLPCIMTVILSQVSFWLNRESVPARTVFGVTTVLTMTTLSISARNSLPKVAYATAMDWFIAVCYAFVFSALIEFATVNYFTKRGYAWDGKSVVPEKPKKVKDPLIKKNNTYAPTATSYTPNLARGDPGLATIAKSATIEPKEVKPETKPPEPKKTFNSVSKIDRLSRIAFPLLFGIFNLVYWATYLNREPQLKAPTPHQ

This assay deals with Gamma-aminobutyric acid receptor subunit alpha-1 (Rattus norvegicus, UniProt P62813).

The structures appear in SMILES notation. Values joined by “and” are separate entries in the source; they are usually repeats but may differ in a detail not shown here. Equal values may be shown once.

Regarding `CC(=O)N(C)c1cccc(-c2ccnc3c(C(=O)c4cccs4)cnn23)c1` [CAS_325715-02-4], the inhibition constant (Ki) is 1.2 nM and 1.8 nM.
